Reference: patent US6583175B2, “Alkylxanthates and use of alkylxanthates in the integrated pest management” (Council of Scientific & Industrial Research, priority 2001, dated 2003)
Read-outs that look alike come from different tables or passages of the source.

Experiments:
[1] = system: Aedes aegypti; assay: Larvicidal activity against IV instar larvae of Aedes aegypti; assay type: in vivo; settings: 24 hours
[2] = system: Brine shrimp, Artemia salina; assay: Brine shrimp bioassay (toxic activity); settings: Artemia salina nauplii, 24 hours
[3] = system: Helicoverpa armigera; settings: topical
[4] = system: Spodoptera litura; assay: Antifeedant activity against late third instar of Spodoptera litura (leaf disk, oral feeding); assay type: in vivo
[5] = system: Spodoptera litura; settings: topical

In the case of m-Fluorobenzyl n-butylxanthate, the “LC50 ± S.E.” value [1] is reported as 12.53 ± 1.24 mg/L and the “LC50 ± S.E.” value [2] is reported as 19.00 ± 2.83 mg/L.
With p-Xylene Bis (n-butylxanthate) the “LC50 ± S.E.” value [1] was 7.35 ± 0.51 mg/L, the “LC50 ± S.E.” value [2] was 45.23 ± 5.63 mg/L and the “Adult emergence: Abnormal adults” value ([3]; 20 μg/Insect) was 19. The “Adult emergence: Intermediates” value ([3]; 20 μg/Insect) was 7, the “Adult emergence: Non emergence” value ([3]; 20 μg/Insect) was 5 and the “Adult emergence: Normal adults” value ([3]; 20 μg/Insect) was 33. The “Larval mortality (%)” value ([3]; 20 μg/Insect) was 18%, the “Pupal Formation: Abnormal pupa” value ([3]; 20 μg/Insect) was 27 and the “Pupal Formation: Normal pupa” value ([3]; 20 μg/Insect) was 39. For the same substance, the “Pupal Formation: Pupal Mortality” value ([3]; 20 μg/Insect) was 16, the “Adult emergence: Abnormal adults” value ([3]; 35 μg/Insect) was 12 and the “Adult emergence: Intermediates” value ([3]; 35 μg/Insect) was 3. The “Adult emergence: Non emergence” value ([3]; 35 μg/Insect) was 6, the “Adult emergence: Normal adults” value ([3]; 35 μg/Insect) was 9 and the “Larval mortality (%)” value ([3]; 35 μg/Insect) was 42%. The “Pupal Formation: Abnormal pupa” value ([3]; 35 μg/Insect) was 18, the “Pupal Formation: Normal pupa” value ([3]; 35 μg/Insect) was 12 and the “Pupal Formation: Pupal Mortality” value ([3]; 35 μg/Insect) was 28. For the same substance, the “Adult emergence: Abnormal adults” value ([3]; 50 μg/Insect) was 13, the “Adult emergence: Intermediates” value ([3]; 50 μg/Insect) was 5 and the “Adult emergence: Non emergence” value ([3]; 50 μg/Insect) was 4. The “Adult emergence: Normal adults” value ([3]; 50 μg/Insect) was 5, the “Larval mortality (%)” value ([3]; 50 μg/Insect) was 56% and the “Pupal Formation: Abnormal pupa” value ([3]; 50 μg/Insect) was 13. For the same substance, the “Pupal Formation: Normal pupa” value ([3]; 50 μg/Insect) was 10, the “Pupal Formation: Pupal Mortality” value ([3]; 50 μg/Insect) was 21 and the “Adult emergence: Abnormal adults” value ([3]; 75 μg/Insect) was 2. The “Adult emergence: Intermediates” value ([3]; 75 μg/Insect) was 2, the “Adult emergence: Non emergence” value ([3]; 75 μg/Insect) was 8 and the “Adult emergence: Normal adults” value ([3]; 75 μg/Insect) was 0. The “Larval mortality (%)” value ([3]; 75 μg/Insect) was 71%, the “Pupal Formation: Abnormal pupa” value ([3]; 75 μg/Insect) was 7 and the “Pupal Formation: Normal pupa” value ([3]; 75 μg/Insect) was 5. For the same substance, the “Pupal Formation: Pupal Mortality” value ([3]; 75 μg/Insect) was 17, the “Adult emergence: Abnormal adults” value ([3]; 100 μg/Insect) was 1 and the “Adult emergence: Intermediates” value ([3]; 100 μg/Insect) was 1. For the same substance, the “Adult emergence: Non emergence” value ([3]; 100 μg/Insect) was 4, the “Adult emergence: Normal adults” value ([3]; 100 μg/Insect) was 0 and the “Larval mortality (%)” value ([3]; 100 μg/Insect) was 85%. For the same substance, the “Pupal Formation: Abnormal pupa” value ([3]; 100 μg/Insect) was 6, the “Pupal Formation: Normal pupa” value ([3]; 100 μg/Insect) was 0 and the “Pupal Formation: Pupal Mortality” value ([3]; 100 μg/Insect) was 15. For the same substance, the “A.I. (Anti-feedent Index)” value ([4]; 10 μg/sq. cm.) was 2.59, the “Percent leaf consumption 12 hr” value ([4]; 10 μg/sq. cm.) was 57.3% and the “Percent leaf consumption 24 hr” value ([4]; 10 μg/sq. cm.) was 90.2%. For the same substance, the “A.I. (Anti-feedent Index)” value ([4]; 15 μg/sq. cm.) was 5.97, the “Percent leaf consumption 12 hr” value ([4]; 15 μg/sq. cm.) was 62.4% and the “Percent leaf consumption 24 hr” value ([4]; 15 μg/sq. cm.) was 84.3%. For the same substance, the “A.I. (Anti-feedent Index)” value ([4]; 20 μg/sq. cm.) was 24.51, the “Percent leaf consumption 12 hr” value ([4]; 20 μg/sq. cm.) was 35.2% and the “Percent leaf consumption 24 hr” value ([4]; 20 μg/sq. cm.) was 57.6%. For the same substance, the “A.I. (Anti-feedent Index)” value ([4]; 25 μg/sq. cm.) was 58.86, the “Percent leaf consumption 12 hr” value ([4]; 25 μg/sq. cm.) was 20.5% and the “Percent leaf consumption 24 hr” value ([4]; 25 μg/sq. cm.) was 24.6%. The “Concentration required for 50% leaf protection EC50 ± S.E.” value ([4]; late third instar) was 29.45 ± 1.76 μg/cm^2, the “Adult emergence: Abnormal adults” value ([5]; 5 μg/Insect) was 29 and the “Adult emergence: Intermediates” value ([5]; 5 μg/Insect) was 10. The “Adult emergence: Non-emergence” value ([5]; 5 μg/Insect) was 0, the “Adult emergence: Normal adults” value ([5]; 5 μg/Insect) was 59 and the “Larval mortality (%)” value ([5]; 5 μg/Insect) was 0%. For the same substance, the “Pupal Formation: Abnormal pupa” value ([5]; 5 μg/Insect) was 15, the “Pupal Formation: Normal pupa” value ([5]; 5 μg/Insect) was 85 and the “Pupal Formation: Pupal Mortality” value ([5]; 5 μg/Insect) was 2. For the same substance, the “Adult emergence: Abnormal adults” value ([5]; 10 μg/Insect) was 38, the “Adult emergence: Intermediates” value ([5]; 10 μg/Insect) was 10 and the “Adult emergence: Non-emergence” value ([5]; 10 μg/Insect) was 1. For the same substance, the “Adult emergence: Normal adults” value ([5]; 10 μg/Insect) was 44, the “Larval mortality (%)” value ([5]; 10 μg/Insect) was 5% and the “Pupal Formation: Abnormal pupa” value ([5]; 10 μg/Insect) was 23. For the same substance, the “Pupal Formation: Normal pupa” value ([5]; 10 μg/Insect) was 72, the “Pupal Formation: Pupal Mortality” value ([5]; 10 μg/Insect) was 3 and the “Adult emergence: Abnormal adults” value ([5]; 20 μg/Insect) was 36. The “Adult emergence: Intermediates” value ([5]; 20 μg/Insect) was 14, the “Adult emergence: Non-emergence” value ([5]; 20 μg/Insect) was 5 and the “Adult emergence: Normal adults” value ([5]; 20 μg/Insect) was 25. The “Larval mortality (%)” value ([5]; 20 μg/Insect) was 20%, the “Pupal Formation: Abnormal pupa” value ([5]; 20 μg/Insect) was 21 and the “Pupal Formation: Normal pupa” value ([5]; 20 μg/Insect) was 59. The “Pupal Formation: Pupal Mortality” value ([5]; 20 μg/Insect) was 5, the “Adult emergence: Abnormal adults” value ([5]; 35 μg/Insect) was 17 and the “Adult emergence: Intermediates” value ([5]; 35 μg/Insect) was 2. The “Adult emergence: Non-emergence” value ([5]; 35 μg/Insect) was 4, the “Adult emergence: Normal adults” value ([5]; 35 μg/Insect) was 9 and the “Larval mortality (%)” value ([5]; 35 μg/Insect) was 59%. The “Pupal Formation: Abnormal pupa” value ([5]; 35 μg/Insect) was 29, the “Pupal Formation: Normal pupa” value ([5]; 35 μg/Insect) was 12 and the “Pupal Formation: Pupal Mortality” value ([5]; 35 μg/Insect) was 13. For the same substance, the “Adult emergence: Abnormal adults” value ([5]; 50 μg/Insect) was 13, the “Adult emergence: Intermediates” value ([5]; 50 μg/Insect) was 3 and the “Adult emergence: Non-emergence” value ([5]; 50 μg/Insect) was 1. For the same substance, the “Adult emergence: Normal adults” value ([5]; 50 μg/Insect) was 2, the “Larval mortality (%)” value ([5]; 50 μg/Insect) was 71% and the “Pupal Formation: Abnormal pupa” value ([5]; 50 μg/Insect) was 21. The “Pupal Formation: Normal pupa” value ([5]; 50 μg/Insect) was 8, the “Pupal Formation: Pupal Mortality” value ([5]; 50 μg/Insect) was 14 and the “Adult emergence: Abnormal adults” value ([5]; 75 μg/Insect) was 2. For the same substance, the “Adult emergence: Intermediates” value ([5]; 75 μg/Insect) was 2, the “Adult emergence: Non-emergence” value ([5]; 75 μg/Insect) was 2 and the “Adult emergence: Normal adults” value ([5]; 75 μg/Insect) was 0. For the same substance, the “Larval mortality (%)” value ([5]; 75 μg/Insect) was 86%, the “Pupal Formation: Abnormal pupa” value ([5]; 75 μg/Insect) was 11 and the “Pupal Formation: Normal pupa” value ([5]; 75 μg/Insect) was 3. The “Pupal Formation: Pupal Mortality” value ([5]; 75 μg/Insect) was 10, the “Adult emergence: Abnormal adults” value ([5]; 100 μg/Insect) was 0 and the “Adult emergence: Intermediates” value ([5]; 100 μg/Insect) was 1. The “Adult emergence: Non-emergence” value ([5]; 100 μg/Insect) was 2, the “Adult emergence: Normal adults” value ([5]; 100 μg/Insect) was 0 and the “Larval mortality (%)” value ([5]; 100 μg/Insect) was 95%. For the same substance, the “Pupal Formation: Abnormal pupa” value ([5]; 100 μg/Insect) was 5, the “Pupal Formation: Normal pupa” value ([5]; 100 μg/Insect) was 0 and the “Pupal Formation: Pupal Mortality” value ([5]; 100 μg/Insect) was 4.
